The entries are a selection whose mix differs from that of the whole data set. Active and inactive are the calls of the source.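 The calls were made as follows: active = thallium signal drop beyond 5 SD of the untreated control mean, on both duplicate plates; inactive = the rest.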
test: nonspecific activity without KCNK9 expression – cell-based, second counter screen, non-induced KCNK9-HEK293, counter-screen for KCNK9 inhibitor project, confirmation (AID 492997); settings: non-induced KCNK9-HEK293, FluxOR thallium flux; at 10 µM; hits give high values;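 also: plate controls were buffer only IC0 wells for no effect and SID17386958 at its maximal inhibitory level for full effect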

Compound	inhibition
CC(C)(C)OC(=O)N1CCC(N(C(=O)c2ccccc2)c2ccc(Cl)cc2)CC1	active: 33%
COc1cccc(C(=O)N(c2cc(C)cc(C)c2)C2CCN(C(=O)OC(C)(C)C)CC2)c1	active: 33.5%
Cc1cc(C)cc(N(C(=O)c2ccccc2)C2CCN(C(=O)OC(C)(C)C)CC2)c1	active: 29.5%
CC(C)(C)OC(=O)N1CCC(N(C(=O)c2ccccc2)c2ccc(F)cc2)CC1	active: 30%
